# What was measured:
# Protein sequences, listed by entry. Tags and fused reporters are not part of them. Residues count along the entry.
# UniProt P01116, 1-169 isoform 2 C118S/G12C limits assumed: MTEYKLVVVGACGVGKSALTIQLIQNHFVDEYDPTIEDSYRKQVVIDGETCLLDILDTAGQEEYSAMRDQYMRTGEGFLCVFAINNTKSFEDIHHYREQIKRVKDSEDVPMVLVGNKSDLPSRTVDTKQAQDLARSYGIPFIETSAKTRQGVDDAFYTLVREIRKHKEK
# UniProt P01116, 1-169 isoform 2 G12C limits assumed: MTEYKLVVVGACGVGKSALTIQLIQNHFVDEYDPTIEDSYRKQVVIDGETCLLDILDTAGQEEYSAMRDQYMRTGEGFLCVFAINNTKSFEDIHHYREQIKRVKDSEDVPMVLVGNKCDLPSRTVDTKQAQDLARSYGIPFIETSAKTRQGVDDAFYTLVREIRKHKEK
# [1] = biological target: Avi-KRAS G12C (1-169) GppNHp/RAF1 RBD-3×FLAG (52-151) (Homo sapiens, UniProt P01116, G12C); assay: Raf1 RBD-KRAS G12C-GppNHp disruption assay (protein:protein interaction HTRF); settings: read-out: Raf1-GppNHp-KRAS G12C disruption IC50
# Description: Biological Example 2: Disrupting KRAS G12C-Effector Binding (Protein: Protein Interaction HTRF Assay)
# A protein: protein interaction (PPI) Homogeneous Time Resolved Fluorescence (HTRF) assay was used to determine the effectiveness of compounds of the present disclosure in disrupting KRAS G12C protein and effector (RAF1 Ras Binding Domain (RBD)) binding.
# The HTRF assay used the following reagents and proteins: 50 nM Avi-KRAS G12C (1-169) GppNHp/RAF1 RBD-3×FLAG (52-151); 35 nM Avi-PI3K RBD-3×FLAG; Assay Buffer: 50 mM Tris pH 7.5, 100 mM NaCl, 5 mM MgCl2, 0.1% BSA, 0.01% Tween 20, 10% DMSO; Bead Buffer: 50 mM Tris pH 7.5, 0.01% Tween 20; Assay volume: 20 μL (384 well plate-low volume format); and Compound titration: 30-0.02 μM, 3× dilution series.
# The HTRF assay employed the following protocol:
# Compounds were dispensed in assay plate (384-well, Grenier Bio-One #784075) using Echo (model 555) with dose response settings: 200 nL final volume, titration from 100 μM as a 10-point dilution series. KRAS proteins were prepared in assay buffer, and dispensed on plates, 5 μL per well, then incubated for 1 h at room temperature, with 700 rpm shaking. RAF1 RBD were prepared in assay buffer, dispensed onto plates, 5 μL per well, and then incubated for 1 h at room temperature, with 700 rpm shaking. Reagent mix was then prepared and dispensed on plates, 10 μL per well, and then incubated for 1 h at room temperature, with 700 rpm shaking.
# Plates were analyzed on an Envision plate reader using the following setting: Excitation 320 nm, Bandwidth 75 nm; Emission 615 nm, Bandwidth 85 nm; Gain 100%; Flashes 100; Lag 60 μs. Data was reported as percentage of activity, with DMSO as 100%. Data was plotted and analyzed using Prism 8.
# (§1) The percent of modification of GppNHp, GTP, or GDP loaded KRAS G12C by MALDI-TOF MS, biochemical Raf1 RBD-KRAS G12C-GppNHp disruption assay IC50, and pERK inhibition IC50 of selected compounds described herein are shown in Table 4. For percent of modification at 15 minutes (MALDI-TOF MS) of GppNHp, GTP, or GDP loaded KRAS G12C: A: percent of modification ≥70%; B: 50≤percent of modification <70%; C: 10%≤percent of modification <50%; D: percent of modification <10%. For Raf1 RBD-KRAS G12C-GppNHp disruption assay: A: IC50≤0.5 μM; B: 0.5 μM<IC50≤5 μM; C: 5 μM<IC50≤20 μM; D: IC50>20 μM. For pERK inhibition in H358 cell assay: A: IC50≤0.1 μM; B: 0.1 μM<IC50≤1 μM; C: IC50>1 μM. Blanks in the table represent that compound was not tested in the indicated assay.
# [2] = biological target: GTP-loaded KRAS4b (amino acids 1-169) G12C/C118S protein (Homo sapiens, UniProt P01116, C118S/G12C); assay: Covalent cysteine 12 modification by MALDI-TOF MS, GTP-loaded KRAS G12C; settings: 15 minutes reaction time point
# Description: (§2) Biological Example 1: Covalent Cysteine 12 Modification Analysis Using Matrix Assisted Laser Desorption Ionization-Time of Flight Mass Spectrometry (MALDI-TOF MS)
# (§3) MALDI-TOF MS analysis was performed using 1 μM protein (KRAS G12C), and 1:2.5 protein to compound ratio.
# (§4) Reaction: 1 μM of GppNHp, GTP, or GDP-loaded KRAS4b (amino acids 1-169) G12C/C118S protein (produced in-house by Protein Expression Laboratory, FNLCR/Leidos Biomed) in 20 mM 4-(2-hydroxyethyl)-1-piperazineethanesulfonic acid (HEPES) buffer containing 150 mM NaCl, 1 mM MgCl2, pH 7.3 was prepared freshly before assay. Twelve-μL aliquots of protein were dispensed onto low volume 384-well plate, then 30 nL of tested compounds from 1 mM DMSO stocks were added to appropriate wells using ECHO 555 acoustic liquid handler (Labcyte Inc.). For each reaction/assay, three blanks were prepared by mixing 12 μL of protein solution with 30 nL DMSO. The contents of the wells were carefully mixed by aspiration, and then each plate was sealed with an adhesive cover, centrifuged at 2000 g for 1 minute, and kept in the dark at room temperature until 5 min, 15 min, 30 min, 2 h, or 6 h collections.
# (§5) Target pretreatment: Before each assay MALDI target (Bruker MPT 384 ground steel BC) was pre-treated by pipetting on each spot 0.75 μL of saturated sinapinic acid in acetonitrile (ACN).
# (§6) Sample preparation: At collection time point, 2 μL of reaction mixtures were pipetted out into 15 μL MALDI matrix solution (saturated solution of sinapinic acid in 1:1 ACN:water solution containing 0.75% trifluoroacetic acid (TFA)) deposited on 384 well polypropylene plate. Resulting solution was mixed by aspiration, centrifuged at 2000 g for 1 minute, then 1.5 μL aliquots were dispensed on pre-treated MALDI target using Beckman Coulter Biomek FXP 96/384-Span-8 Laboratory Automation Workstation. Finally, the MALDI target was dried under mild vacuum to produce spots with fine crystalline structure.
# (§7) Measurements: MALDI-TOF measurements were performed on a Bruker Daltonics rapiflex Tissuetyper TOF-TOF mass spectrometer using linear mode and mass range from 18.6 to 21.6 kDa. Detector gain was set to 3.3×(483 V), sample rate to 5 GS/s, real time smoothing to medium (175 MHz), laser smart beam pattern was set to: “MS Thin Layer M5”, and the laser frequency was 10000 Hz. Spectra were automatically collected using custom AutoXecute method. Laser power was auto adjusted using fuzzy control. The peak selection range was set to be between 19000 and 21500 Da. Peak evaluation uses half width parameter set to be smaller than 40 Da for processed spectrograms (centroid peak detection; smoothed by SavitzkyGolay algorithm using 7 m/z width and 2 cycles; baseline was subtracted using median algorithm with flatness 1 and median level 0.01). Fuzzy control used Proteins/Oligonucleotides protocol with minimum half width 1/10 times above threshold. Up to 40000 satisfactory shots were collected in 10000 shot steps. Dynamic termination was implemented to finish data collection when peak signal/noise ratio was reaching value of 50.
# (§8) Spectra processing: Spectra were smoothed by SavitzkyGolay algorithm using 7 m/z width and three cycles. Centroid peak detection algorithm was used with signal to noise threshold set to 6, relative intensity threshold 4%, peak width 10 m/z and median baseline subtraction using flatness of 1 and median level of 0.01. Peak intensity and area under the peak were evaluated and recorded for all peaks between 19,300 Da and 21,550 Da.
# (§9) Calculation of percent modification: Percent modification was calculated as a ratio of peak height for protein modified by compound to sum of peak height of remaining protein plus peak height for protein modified by compound. If multiple modifications were observed each was calculated as a ratio of peak height for given modification versus sum of peak heights for all observed protein species. Data reported in Table 4 are from 15 minutes reaction time point. […]
# [3] = biological target: GppNHp-loaded KRAS4b (amino acids 1-169) G12C/C118S protein (Homo sapiens, UniProt P01116, C118S/G12C); assay: Covalent cysteine 12 modification by MALDI-TOF MS, GppNHp-loaded KRAS G12C; settings: 15 minutes reaction time point
# Description: as §2, §3, §4, §5, §6, §7, §8, §9
# [4] = system: pERK in NCI-H358 cells; assay: Cell-based pERK HTRF assay (pERK inhibition in H358 cells); settings: read-out: pERK in H358 cell IC50, 30 min incubation
# Description: Biological Example 3: Cell-Based pERK HTRF Assay
# pERK assays (Perkin Elmer) were used to determine the effectiveness of compounds of the present disclosure in disrupting KRAS G12C protein/effector signaling in cells.
# On Day 1, cells (NCI-H358) were seeded into 96-well plates at 4×10^4 cells/well in complete growth media (RPMI, 10% FBS).
# On Day 2, cells were treated with compounds at 0.25% DMSO. The source plate was created with compounds diluted in media at 5-fold the final assay concentration. The compounds were run in a 9-point concentration curve starting at 75 μM, with a 3-fold dilution between concentrations. 20 μL was transferred onto the cell plates (final volume in wells was 100 μL). Plates were harvested after 30 min incubation by aspirating media and adding kit-supplied 1× supplemented lysis buffer to all wells (75 μl per well). Plates were then placed on a plate shaker and incubated at 850 rpm for an additional 30 min.
# Antibody mixture solution was prepared by diluting aliquoted d2 and Eu Cryptate antibodies 1:20 in kit supplied detection buffer, then mixed the diluted antibodies solutions (1:1 v:v). 4 μL of this solution was then added to a 384-well detection plate (Perkin Elmer; 6008230).
# Samples were homogenized by pipetting up and down and then transferred (16 μL of cell lysates) from the 96-well cell culture plate to two wells of the HTRF 384-well detection plate containing the antibody solution. Plates were centrifuged (524 g for […]) and allowed to incubate between 4 and 24 h at room temperature. Maximum signal is reached after 4 h incubation time and remains stable over a period of 24 hours. Therefore, readings can be made between 4 and 24 h of incubation. Plates were centrifuged again (524 g for 1 min), and analyzed on the En Vision plate reader using the following settings: Excitation 320 nm, Bandwidth 75 nm; Emission 615 nm, Bandwidth 85 nm; Gain 100%; Flashes 100; Lag 60 μs.
# as §1
# [5] = biological target: GDP-loaded KRAS4b (amino acids 1-169) G12C/C118S protein (Homo sapiens, UniProt P01116, C118S/G12C); assay: Covalent cysteine 12 modification by MALDI-TOF MS, GDP-loaded KRAS G12C; settings: 15 minutes reaction time point
# Description: as §2, §3, §4, §5, §6, §7, §8, §9
SMILES,IC50 [1] [µM],GTP-KRAS G12C percent of modification [2],GppNHp-KRAS G12C percent of modification [3],IC50 [4] [µM],GDP-KRAS G12C percent of modification [5]
C=CC(=O)N1CC[C@@H](N(C)c2nc(OC[C@@H]3CC4(CC4)CN3C)nc3c(F)c(-c4nc(N)cc(C)c4C(F)(F)F)c(C(F)(F)F)cc23)[C@H]1C,< 0.5,B (50≤percent of modification <70%),A (percent of modification ≥70%),0.1 to 1,A (percent of modification ≥70%)
C=CC(=O)N1CC[C@@H](N(CC)c2nc(OC[C@@]34CCCN3C[C@H](OC)C4)nc3c(F)c(-c4ccc(F)c5sc(N)c(C#N)c45)ccc23)[C@H]1C,< 0.5,A (percent of modification ≥70%),A (percent of modification ≥70%),< 0.1,A (percent of modification ≥70%)
C=CC(=O)N1CC[C@@H](N(CC)c2nc(OC[C@]34CCCN3C[C@H](OC)C4)nc3cc(-c4ccc(F)c5sc(N)c(C#N)c45)c(F)cc23)[C@H]1C,< 0.5,A (percent of modification ≥70%),A (percent of modification ≥70%),0.1 to 1,A (percent of modification ≥70%)
C=CC(=O)N1CC[C@@H](N(CC)c2nc(OC[C@@]34CCCN3C[C@H](F)C4)nc3c(F)c(-c4ccc(F)c5sc(N)c(C#N)c45)c(C(F)(F)F)cc23)[C@H]1C,< 0.5,C (10%≤percent of modification <50%),B (50≤percent of modification <70%),< 0.1,C (10%≤percent of modification <50%)
C=CC(=O)N1C[C@@H]2C[C@H]1CN2c1nc(OC[C@@]23CCCN2C[C@H](F)C3)nc2c(F)c(-c3ccc(F)c4sc(N)c(C#N)c34)c(C(F)(F)F)cc12,< 0.5,D (percent of modification <10%),D (percent of modification <10%),< 0.1,B (50≤percent of modification <70%)
C=CC(=O)N1CC[C@@H](N(C)c2nc(OC[C@@]34CCCN3C[C@H](F)C4)nc3c(F)c(-c4nc(N)cc(C)c4C(F)(F)F)c(Cl)cc23)[C@@H]1C,< 0.5,C (10%≤percent of modification <50%),B (50≤percent of modification <70%),< 0.1,A (percent of modification ≥70%)
C=CC(=O)N1CC[C@@H](N(C)c2nc(OC[C@@H]3CC4(CC4)CN3CC)nc3c(F)c(-c4ccc(F)c5sc(N)c(C#N)c45)c(C(F)(F)F)cc23)[C@H]1C,< 0.5,A (percent of modification ≥70%),A (percent of modification ≥70%),< 0.1,A (percent of modification ≥70%)
